By UniProt entry, the sequences of proteins in these tests, tags left out.
UniProt P30551, whole entry: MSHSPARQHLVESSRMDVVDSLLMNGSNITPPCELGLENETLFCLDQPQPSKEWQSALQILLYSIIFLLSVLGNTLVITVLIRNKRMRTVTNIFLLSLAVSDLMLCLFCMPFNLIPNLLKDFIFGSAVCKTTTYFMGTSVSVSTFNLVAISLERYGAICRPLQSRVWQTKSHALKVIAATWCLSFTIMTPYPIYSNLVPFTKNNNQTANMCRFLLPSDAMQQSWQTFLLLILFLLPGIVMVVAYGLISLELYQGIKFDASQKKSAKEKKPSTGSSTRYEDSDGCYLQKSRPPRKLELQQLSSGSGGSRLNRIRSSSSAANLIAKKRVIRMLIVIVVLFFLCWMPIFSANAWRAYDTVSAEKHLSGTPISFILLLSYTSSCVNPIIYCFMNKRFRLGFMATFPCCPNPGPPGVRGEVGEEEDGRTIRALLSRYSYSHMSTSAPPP

According to ChEMBL document CHEMBL1127379, “Three-dimensional molecular shape analysis-quantitative structure-activity relationship of a series of cholecystokinin-A receptor antagonists” (J Med Chem, 1994):

Molecular target: Cholecystokinin receptor type A (Rattus norvegicus, UniProt P30551)
Experiment: Binding affinity against cholecystokinin type A receptor of rat pancreas

Work on CN1C(=O)C(NC(=O)c2ccccc2Br)N=C(c2ccccc2F)c2ccccc21 (configuration not stated) yielded an IC50 of 6.17 µM.

Compound O=C(NC1N=C(c2ccccc2F)c2ccccc2NC1=O)c1ccccc1Cl (configuration not stated) has an IC50 of 5.62 µM.
